Measurements taken from US20240083873A1, “PYRIMIDINE CARBOXAMIDE COMPOUND AND APPLICATION THEREOF” (SHANGHAI MEIYUE BIOTECH DEVELOPMENT CO., LTD, priority 2020, published 2024).

Assay: In vivo pharmacokinetic evaluation in mice
Conditions: C57BL6 mice; for Peak concentration Cmax: plasma
Excerpt: 2. In Vivo Pharmacokinetic Evaluation in Mice
To detect pharmacokinetic parameters of the compounds of the present disclosure in C57BL6 mice
The vehicle used in the experiment was: DMSO:Solutol:PBS=5%:25%:70% (v/v/v). Preparation method: The required compound was weighed accurately, added with a certain volume of DMSO in a certain proportion, vortex-mixed until completely dissolved, then added successively with Solutol and PBS according to the above proportion, and mixed well. The vehicles used in the intravenous (iv) administration group and oral (po) administration group were the same vehicles in the experiment. The intravenous dose was 1 mpk and the oral dose was 2 mpk. Experimental blood collection time points: IV group: 0.083, 0.25, 0.5, 1, 2, 4, 7, 24 h. PO group: 200 μL of whole blood was collected from jugular vein at each time point of 0.25, 0.5, 1, 2, 4, 7 and 24 h, anticoagulated with EDTA-K2, and immediately centrifuged at 4000 rpm for 5 minutes at 4° C. The supernatant was taken and the samples were frozen and stored in a refrigerator at −80° C. Processing of plasma samples: The sample was precipitated with ACN/MeOH (1:1, v/v) precipitant containing internal standard, then centrifuged at 14000 rpm for 5 minutes. The supernatant was taken into LC-MS/MS (AB Triple Quard 5500) for analysis to obtain plasma concentrations, and parameters were calculated by the non-compartmental model of Winnolin 8.1 version.

[1] = intragastric administration group po, 2 mpk
[2] = intravenous injection group iv, 1 mpk

Area under the curve AUC0-7h [1]: 618.38 ng·h/mL
Clearance rate CL [1]: 54.635 mL/min/kg
Distributed solvent Vd [1]: 7.5 L/kg
Half-life T1/2 [1]: 1.56 h
Peak concentration Cmax [1]: 557.4 ng/mL
Area under the curve AUC0-7h [2]: 406.64 ng·h/mL
Clearance rate CL [2]: 40.2583 mL/min/kg
Distributed solvent Vd [2]: 8.6 L/kg
Half-life T1/2 [2]: 2.46 h
Peak concentration Cmax [2]: 722.5 ng/mL
Bioavailability F % (po 2 mpk vs iv 1 mpk): 76.4%
Compound: O=C(c1cnc(N[C@@H]2CCc3ncccc32)nc1)N1CCC2(CCOCC2)C1
